Here are results for one compound from ChEMBL document CHEMBL5226337, “Pyrazolopyrimidines as anticancer agents: A review on structural and target-based approaches” (Eur J Med Chem, 2021).

Amino acid sequences for entries named in this document (tags omitted). A change or cut given only in a name is not applied to a line headed by its entry.
UniProt Q06187: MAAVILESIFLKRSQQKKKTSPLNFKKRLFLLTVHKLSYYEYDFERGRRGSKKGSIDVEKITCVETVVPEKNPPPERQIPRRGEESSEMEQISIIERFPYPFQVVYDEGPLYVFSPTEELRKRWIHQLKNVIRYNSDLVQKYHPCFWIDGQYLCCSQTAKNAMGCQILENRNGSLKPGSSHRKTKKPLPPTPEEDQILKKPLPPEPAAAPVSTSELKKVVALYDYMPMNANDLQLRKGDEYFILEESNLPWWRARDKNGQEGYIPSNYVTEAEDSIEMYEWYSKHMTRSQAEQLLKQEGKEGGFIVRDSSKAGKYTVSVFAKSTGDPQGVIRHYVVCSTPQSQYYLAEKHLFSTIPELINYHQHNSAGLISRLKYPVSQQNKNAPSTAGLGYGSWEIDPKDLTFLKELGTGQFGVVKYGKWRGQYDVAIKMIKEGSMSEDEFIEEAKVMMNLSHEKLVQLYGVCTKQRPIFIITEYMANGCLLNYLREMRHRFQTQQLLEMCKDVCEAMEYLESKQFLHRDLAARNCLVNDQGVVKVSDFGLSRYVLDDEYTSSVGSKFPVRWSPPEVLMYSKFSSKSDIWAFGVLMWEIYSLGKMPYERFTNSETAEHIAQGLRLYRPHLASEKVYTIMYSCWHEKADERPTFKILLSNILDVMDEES

This test addresses Tyrosine-protein kinase BTK (Homo sapiens, UniProt Q06187). The experiment in a line: Inhibition of human BTK using biotin as a substrate assessed as decrease in fold change preincubated for 5 mins followed by substrate addition incubated for 30 mins in presence of ATP by fluorescence based assay. As to conditions: time 35.0 min.

Molecules are shown by their SMILES.

Take `Nc1ncnc2c1c(-c1ccc(Oc3ccccc3)nc1)nn2C1CCCN(C(=O)CCl)C1` (stereo unspecified): the fold change (FC) came to 5.
